# Experiments:
# G. pulex [1] = details: ref Ashauer et al. (2010); cited from earlier work
# G. pulex [2] = test: Re-examination of raw toxicokinetic data from Ashauer et al. (2010) using the OECD 305 modelling approach; details: 2010 re-modelled
smiles,measurement,setting,value
Cc1cc([N+](=O)[O-])cc([N+](=O)[O-])c1O,BAF,G. pulex [1],37
same,"BCF, Sequential BCF",G. pulex [2]; sequential method,51 L kg^− 1
same,"k1, Sequential BCF",G. pulex [2]; sequential method,37 L kg^− 1 day^− 1
same,"k2, Sequential BCF",G. pulex [2]; sequential method,0.729 day^− 1
same,"BCF, Simultaneous BCF",G. pulex [2]; simultaneous method,34 L kg^− 1
same,"k1, Simultaneous BCF",G. pulex [2]; simultaneous method,39 L kg^− 1 day^− 1
same,"k2, Simultaneous BCF",G. pulex [2]; simultaneous method,1.146 day^− 1

# — article PMC4956724, “Assessing the reliability of uptake and elimination kinetics modelling approaches for estimating bioconcentration factors in the freshwater invertebrate, Gammarus pulex” (The Science of the Total Environment, 2016)
